## AlphaSeq binding of Ab-14 light chain variants to a spike HR2 peptide

Reference: Li et al. 2023, doi:10.1038/s41467-023-39022-2. File: FLAb, binding data.

Target peptide (SARS-CoV-2 spike, HR2 region): PDVDLGDISGINAS

Each scFv is VH, three GGGGS repeats, VL, as in the parent Ab-14, and differs from it in the CDRs of the light chain only.
VH: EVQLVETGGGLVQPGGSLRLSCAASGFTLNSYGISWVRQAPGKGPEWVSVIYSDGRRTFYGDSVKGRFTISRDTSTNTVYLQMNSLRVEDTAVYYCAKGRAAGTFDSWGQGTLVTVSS
VL: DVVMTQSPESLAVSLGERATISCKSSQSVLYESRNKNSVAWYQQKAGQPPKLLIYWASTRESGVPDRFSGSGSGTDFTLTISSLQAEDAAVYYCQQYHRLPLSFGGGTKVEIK

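The variants were designed computationally from a first round of random CDR variants and then made and measured. Several design methods are mixed in this list. AlphaSeq pools MATa yeast showing the antibodies with MATalpha yeast showing the peptide. Pairs that bind mate more often; barcode pairs of the diploids are counted by sequencing. The ratio of observed to expected reads was calibrated, replicate by replicate, on BCL2-family standards whose Kd was known from biolayer interferometry. Each pool was mated in six replicate cultures.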

Variants are written as CDR1, CDR2 and CDR3 of the light chain (limits as in the source). Parent: KSSQSVLYESRNKNSVA, WASTRES, QQYHRLPLS.
Variants here have at most six changes.
Numbers give log10(Kd / nM), so 0 is 1 nM and 3 is 1 µM. Smaller is tighter.
Where no diploid with the target was found in that replicate, the entry reads "ND": below detection, most likely a poor binder, though not proof of it.
In the paper, a design with two or fewer of six values counts as a poor binder.

- KFSQSVLYESTTFNSVA, NASTRES, QQYHRLPLS -> 0.20, 0.25, -0.09, 0.08, 0.24, 0.32
- KLSQSVMMESRNKNSVA, NASTRES, QQYHRLPLS -> -0.18, -0.38, -0.37, -0.41, -0.47, -0.27
- KSSQSILYESLNKNSVA, HASTRES, QQYHRLPLS -> 0.67, 0.71, 0.55, 0.81, 0.68, 0.84
- FQSQSVLYESRNKNSVA, DASTRES, QQYHRLPLS -> 0.32, 0.41, 0.07, 0.54, -0.03, 0.47
- KLSQSVLYESRNKNSVA, AASTREV, QQYHRLPLS -> 0.97, 0.96, 0.65, 0.37, 0.67, 0.49
- KSSQSVKYESVNKNSVA, HASTRES, QQTMRWPLS -> 0.81, ND, ND, ND, ND, ND
- KVQQSVLYESRNKNNVA, HASTRED, QQYHRLPLS -> -0.30, -0.32, -0.45, -0.46, -0.36, -0.24
- KASWSVLFESRNKNSVA, DASTRSS, QQYHRLPLS -> 0.18, -0.05, -0.06, -0.18, 0.02, 0.06
- KLSQSELYESRNKNSVA, NASQRLS, QQYHRLPLS -> 0.04, -0.09, -0.25, -0.26, -0.29, -0.08
- KLLQSWLYESRNKNSVA, NASQRES, QQYHRLPLS -> -0.03, -0.02, 0.03, -0.19, -0.33, 0.05
- KLSQSVLYEDRNKNSVA, GASTRES, QQYHRLPLS -> -0.28, -0.25, -0.43, -0.65, -0.59, -0.12
- KLRQSWLYESRNQNSVA, NASTRES, QQYHRLPLS -> -0.35, -0.37, -0.47, -0.39, -0.52, -0.33
- KFLQSVLYESRNKNSVA, HASTREQ, QQYHFLPLS -> 1.23, 1.05, 0.69, 1.12, 0.93, 0.98
- KFPQSVLYESRNKNSVA, NASQRES, QQYHRLPLS -> -0.13, -0.13, -0.39, -0.34, -0.18, -0.08
- KSSQSDLYESRNKNSVA, WASTREE, QQYHRLPLS -> 1.55, 1.52, 1.58, 0.94, 1.45, 2.02
- KLSQSVGYESRNKNNVA, DASTRES, QQYHRLPLS -> -0.11, -0.32, -0.50, -0.61, -0.51, -0.29
- KMMQGVLYESRVKNSVA, GASTRES, QQYHRLPLS -> 0.65, 0.64, 0.66, 0.92, 0.58, 0.59
- KLSQSELYESRNKNSVA, SASQRES, QQYHRLPLS -> -0.10, -0.24, -0.22, -0.22, -0.47, 0.06
- KFEQSNLYESRNKNSVA, NASQRES, QQYHRLPLS -> 0.20, 0.23, 0.00, -0.22, 0.18, 0.16
- KSSQSVLDEGTNKNSVA, WASTRED, QQYHRLPLS -> 1.13, 0.91, 0.26, 0.72, 1.00, 0.80
- KTSQSVLYESRNPNSVA, WASTRES, QQKHREPLS -> 1.81, ND, ND, 1.62, 2.10, ND
- KSSQSVLYETRNKNHVA, AASTRES, QQYHRLPLS -> 1.08, 0.35, 0.25, 0.22, 0.22, 1.19
- KSSDSVLYEDRNKNSVA, WASTRES, QQYHRLPLS -> ND, ND, ND, ND, ND, ND
- KLSQSDLYESRNKNSVA, GGSTRES, QQYHRLPLS -> 0.23, -0.10, 0.08, -0.15, 0.11, 0.19
- KSSGSTLYESPNKNSVA, DASTRES, QQQHRLPLS -> 1.04, 1.34, 0.76, 1.11, 1.04, 1.30
- KSSQSVLYESRGKNSVA, AATTRES, QQKHRLPLS -> 1.35, 2.22, 0.75, 2.18, 1.64, 2.58
- KVSQSWLMESRNKNSVA, EASTRCS, QQYHRLPLS -> 0.02, -0.10, -0.14, -0.11, -0.17, -0.10
- KISQSVLMESRNKNSVA, WASTRES, QQYHRLPLS -> 0.43, 0.36, 0.20, 0.20, 0.32, 0.55
- KLSQSVPYEWRNKNSVA, NASTRES, QQYHRLPLS -> 0.38, 0.14, 0.14, 0.04, -0.13, 0.18
- KLRMSTLYESRNKNSVA, AASTRES, QQYHRLPLS -> 1.09, 0.51, 1.16, 0.46, 1.13, 0.97
- KSSQSVLYESRNKNSVA, RVSTRES, QWYHRLPLS -> ND, ND, ND, ND, ND, ND
- ILSQSVLYESRNKNSVA, NASTRMS, QQYHRLPLS -> -0.21, -0.33, -0.33, -0.49, -0.33, 0.04
- QLSQSVLYESRNKNSVA, NASTRES, QQYHRLPLS -> -0.29, -0.29, -0.32, -0.36, -0.29, -0.33
- KMSNSVLYESRNKNSVA, WASTRES, QQYHKLPLS -> 0.78, 0.98, 0.76, 0.41, 0.96, 0.55
- KLSQAVLYESRNKNSVA, DASTRES, QQYHRLPLS -> -0.61, -0.33, -0.45, -0.55, -0.18, -0.18
- KLQQSVMYESRNKNSVA, NASTRES, QQYHRLPLS -> -0.22, -0.22, -0.21, -0.45, -0.48, -0.14
- KSGRGVLYESRNKCSVA, GASTRES, QQYHRYPLS -> 1.13, 1.20, 0.18, 0.19, 2.80, 0.61

Again, the first 2 entries without any signal:

{"CDR-L1": "KSSDSVLYEDRNKNSVA", "CDR-L2": "WASTRES", "CDR-L3": "QQYHRLPLS", "log10 Kd (nM) by replicate": "ND, ND, ND, ND, ND, ND"}
{"CDR-L1": "KSSQSVLYESRNKNSVA", "CDR-L2": "RVSTRES", "CDR-L3": "QWYHRLPLS", "log10 Kd (nM) by replicate": "ND, ND, ND, ND, ND, ND"}

Values of this round are not directly comparable with the first-round values of the same sequences.
Nonspecific signal, from three strains lacking the peptide, appeared in 4% of pairings of all light chain designs, centred on 2.64 (5% of these signals below 1.59); values are not corrected for it.
Of ten entries with the parent sequence, four were seen in most replicates (averages 0.34 to 2.37), three in one and three in none, so single entries are noisy.